Earlier results in patent US11752199B1, “Methods of modulating pericytes” (MALLINCKRODT ARD IP UNLIMITED COMPANY, priority 2020, dated 2023).

Sequences of proteins named here, by UniProt entry; tags and fusion partners are left off.
UniProt P32245, whole entry, species assumed: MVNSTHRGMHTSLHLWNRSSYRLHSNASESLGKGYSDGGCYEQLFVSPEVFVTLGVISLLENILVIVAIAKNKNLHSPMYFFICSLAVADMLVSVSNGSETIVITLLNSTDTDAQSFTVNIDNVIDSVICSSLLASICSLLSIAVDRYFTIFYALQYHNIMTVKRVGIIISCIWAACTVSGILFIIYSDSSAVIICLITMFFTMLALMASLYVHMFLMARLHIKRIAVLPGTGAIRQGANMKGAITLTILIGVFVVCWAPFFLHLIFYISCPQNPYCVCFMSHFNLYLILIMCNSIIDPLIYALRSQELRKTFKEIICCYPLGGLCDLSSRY

Target: MC4R (Homo sapiens, UniProt P32245)
Settings: compared with α-MSH

MC4R agonist potency relative to α-MSH: more potent
Substance: NDP-α-MSH
